# Ab-14 light chain CDR variants: yeast mating affinities

Antigen: PDVDLGDISGINAS, a 14-residue peptide of the SARS-CoV-2 spike HR2 region.

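The parent was found by panning a naive human phage display library on the peptide. AAYL50 was designed without a model: most single CDR substitutions and a random sample of double and triple ones. In AlphaSeq, yeast of one mating type display the scFv and yeast of the other type display the target. Mating (16 h, 30 °C) was followed by selection of diploids and sequencing of their barcodes. A regression on co-assayed BCL2-family reference pairs converts the normalised counts of each replicate to an apparent Kd. There are three technical replicates.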

The variants keep the heavy chain, the linker and the frameworks of Ab-14 (scFv order VH, a 15-residue (Gly4Ser)3 linker, VL).
VH: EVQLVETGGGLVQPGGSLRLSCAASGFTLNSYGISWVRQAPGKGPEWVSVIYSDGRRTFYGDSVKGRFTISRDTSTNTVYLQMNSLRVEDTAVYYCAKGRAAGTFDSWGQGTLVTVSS
VL: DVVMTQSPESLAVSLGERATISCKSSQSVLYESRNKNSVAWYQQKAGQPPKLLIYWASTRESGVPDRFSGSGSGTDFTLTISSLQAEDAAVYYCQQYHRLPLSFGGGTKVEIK

The parent's light chain CDRs are KSSQSVLYESRNKNSVA, WASTRES, QQYHRLPLS; each variant's own CDRs replace them letter for letter. All variants listed here change T59 of the VL, counted from its first residue. Values are apparent Kd, the geometric mean of the replicates that gave a signal; lower means stronger binding. An entry "nd" has no value in the source: the pair was not observed among the diploids in any replicate. This suggests poor binding but is not conclusive. Three control strains display no target. For library AAYL50, 18% of the pairings with them gave a signal, with a median of 15 µM and one signal in twenty below 970 nM, so weak values seen in few replicates may be background.

With KSSQSVLYESRNKNSVA / WASERRS / QMYHRLPLS the result was 17 µM (3 of 3 replicates).
With KSSQSVLYESRNKNSVA / WASPWTS / QQYHRLPLS the result was 2.3 µM (1 of 3 replicates).
With NSSQSVLYESRNKNSHA / WASKRES / QQYHRLPLS the result was nd (0 of 3 replicates).
With KSSQSVLYESRNWNSVA / WASHREE / QQYHRLPLS the result was 13 nM (3 of 3 replicates).
With KSSQSVLYEYRNKNSVA / WVSVRES / QQYHRLPLS the result was 700 nM (3 of 3 replicates).
With KSSQSVLYEYRNKNSVA / WASKRES / QQYHRQPLS the result was 2.7 µM (1 of 3 replicates).
With KSSQSVLYESRNKNSVA / WASARES / QQYHRLPLS the result was nd (0 of 3 replicates).
With KSSQSVLYESRNKNSVA / WASPRET / QQYHRLPLS the result was nd (0 of 3 replicates).
With KSSQSVLYESRNKNQVA / WASNREW / QQYHRLPLS the result was nd (0 of 3 replicates).
With KSSQSVGYESRNKNSVA / WASARES / QPYHRLPLS the result was 26 µM (1 of 3 replicates).
With KSSQSVLYESRLKNSVA / WASFRES / QQYHRLPLM the result was 5.1 µM (3 of 3 replicates).
With KSSQSVNYESRNRNSVA / WASNRES / QQYHRLPLS the result was 70 nM (3 of 3 replicates).
With KSSQSPLYESRNKNSVN / WASNRES / QQYHRLPLS the result was 2.3 µM (1 of 3 replicates).
With KSAQSVLYESRNKNSSA / WASSRES / QQYHRLPLS the result was 9.4 µM (1 of 3 replicates).
With KSSQSVLYESRNKNSVK / WASLRSS / QQYHRLPLS the result was 46 µM (2 of 3 replicates).
With KSSQSVLYQSRNKNSVA / WASKRES / QEYHRLPLS the result was nd (0 of 3 replicates).
With KSSASVLYESRNKNWVA / WASGRES / QQYHRLPLS the result was 2.2 µM (1 of 3 replicates).
With KSSQSVLYESRNKNSVA / WAANRES / QQYHCLPLS the result was nd (0 of 3 replicates).
With KSSQSVLYESRNKNSVA / WASKRTS / QMYHRLPLS the result was 1.1 µM (3 of 3 replicates).
With KSSQSVLYESRNKNSVA / WASSPES / QQYHRLPQS the result was 670 nM (1 of 3 replicates).
With KSSQSVLYESRNKNSNA / WAERRES / QQYHRLPLS the result was 23 µM (1 of 3 replicates).
With KSSFSVLYESRNKNSVA / WASERES / QQYHRLPLS the result was 5.7 nM (3 of 3 replicates).
With KSCQSVLYESRNKNSVA / WASNRES / QQYHRLPLS the result was 31 µM (2 of 3 replicates).
With KSSQSLLYESRNKNSVA / WAEARES / QQYHRLPLS the result was 13 nM (3 of 3 replicates).
With KSSQSVLYESRNKNSVA / WTSNRES / QQYHVLPLS the result was 290 nM (3 of 3 replicates).
With KSSQSVLYESRNKNSVA / WASVRES / QQYHRLPQW the result was nd (0 of 3 replicates).
With KSSQSVLYESRNKNSVA / WASMRES / QQYHRWPLS the result was nd (0 of 3 replicates).
With KSSQSVLYESRNKNQVA / WASYRES / QQYHRLPLS the result was 1.5 µM (2 of 3 replicates).
With KSSQSVLYESNNKNSVA / WASVRES / QQYHRLCLS the result was 380 nM (3 of 3 replicates).
With KSSQSVLYESRLKNSVA / WASKRRS / QQYHRLPLS the result was 4.2 µM (1 of 3 replicates).
With FSSQSVLYESRNKNSVA / WASARES / QQYHRLPLS the result was 29 µM (3 of 3 replicates).
With KVQQSVLYESRNKNSVA / WASHRES / QQYHRLPLS the result was 910 pM (3 of 3 replicates).
With KSSQSVLYESRNKNSVA / WASVRES / QQYLRLPLE the result was 51 nM (3 of 3 replicates).

Extract of 2 entries:

CDR-L1	CDR-L2	CDR-L3	apparent Kd	replicates with signal
KSCQSVLYESRNKNSVA	WASNRES	QQYHRLPLS	31 µM	2 of 3
KSSQSVLYESRNKNSVA	WTSNRES	QQYHVLPLS	290 nM	3 of 3

The measurements come from Engelhart et al. 2022 (doi:10.1038/s41597-022-01779-4) through the FLAb antibody collection.